IC50 data for ten molecules are collected here from ChEMBL document CHEMBL1140999, “Succinyl hydroxamates as potent and selective non-peptidic inhibitors of procollagen C-proteinase: design, synthesis, and evaluation as topically applied, dermal anti-scarring agents” (Bioorg Med Chem Lett, 2008).

The chains behind the UniProt entries cited, without tags or fusion partners. Where a name states a change or a piece, a line headed by the entry shows the natural chain unless it says otherwise.
UniProt P08253: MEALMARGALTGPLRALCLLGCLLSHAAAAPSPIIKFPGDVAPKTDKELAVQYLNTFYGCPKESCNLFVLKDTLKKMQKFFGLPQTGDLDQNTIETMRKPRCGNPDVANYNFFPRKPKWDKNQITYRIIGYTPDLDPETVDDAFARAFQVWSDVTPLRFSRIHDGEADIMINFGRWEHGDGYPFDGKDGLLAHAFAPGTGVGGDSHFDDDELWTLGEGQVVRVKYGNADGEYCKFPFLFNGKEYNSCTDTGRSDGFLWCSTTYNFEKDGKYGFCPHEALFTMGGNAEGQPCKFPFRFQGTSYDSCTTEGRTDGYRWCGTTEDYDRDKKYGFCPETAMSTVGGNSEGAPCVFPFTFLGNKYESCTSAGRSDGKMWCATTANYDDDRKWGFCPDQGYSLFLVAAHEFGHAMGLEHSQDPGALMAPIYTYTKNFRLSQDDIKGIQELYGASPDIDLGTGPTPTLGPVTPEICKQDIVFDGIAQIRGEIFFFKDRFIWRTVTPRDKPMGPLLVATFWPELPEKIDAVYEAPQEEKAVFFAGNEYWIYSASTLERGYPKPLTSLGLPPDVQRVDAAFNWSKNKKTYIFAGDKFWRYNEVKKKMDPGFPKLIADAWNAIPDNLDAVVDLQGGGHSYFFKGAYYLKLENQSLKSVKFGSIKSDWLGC

In general, IC50 refers to the concentration at which inhibition is half-maximal. High values mean a need for much substance, low ones inhibition by little substance.

In this assay the target is 72 kDa type IV collagenase (Homo sapiens, UniProt P08253). The assay is described as follows: Inhibition of human MMP2 by fluorescence assay.

In the case of `CN(C)C(=O)c1noc([C@H](CCCC2CCCCC2)CC(=O)NO)n1`, the 50% inhibitory concentration (IC50) was over 100 µM.
For `O=C(O)CNC(=O)c1noc([C@H](CCCC2CCCCC2)CC(=O)NO)n1` the value was over 100 µM.
For `O=C(C[C@@H](CCCC1CCCCC1)c1nc(C(=O)N2CCCCC2)no1)NO` the value was 74.9 µM; for `CC(C)NC(=O)c1noc([C@H](CCCC2CCCCC2)CC(=O)NO)n1`, over 100 µM.
For `CNC(=O)c1noc([C@H](CCCC2CCCCC2)CC(=O)NO)n1` the value was over 30 µM; for `CCCNC(=O)c1noc([C@H](CCCC2CCCCC2)CC(=O)NO)n1`, 21.7 µM; for `CN(Cc1ccccc1)C(=O)c1noc([C@H](CCCC2CCCCC2)CC(=O)NO)n1`, 81.8 µM.
In the case of `CN(Cc1ccccn1)C(=O)c1noc([C@H](CCCC2CCCCC2)CC(=O)NO)n1`, the IC50 came out at 50.5 µM.
`O=C(C[C@@H](CCCC1CCCCC1)c1nc(C(=O)NCc2ccccn2)no1)NO` returned an IC50 of over 30 µM.
For `O=C(C[C@@H](CCCC1CCCCC1)c1nc(C(=O)NCC2CC2)no1)NO` the value was over 30 µM.
